How the values were obtained:
[1] = tested on: GSK3β; assay: Western blotting of GSK3β phosphorylation in MC3T3-E1 cells; assay type: cell-based, mouse; settings: 1 and 3 hours after the addition; 200 μM peptide D or 200 ng/ml BMP-2
Protocol: (§1) MC3T3-E1 cells mixed with 10% FBS+αMEM (SIGMA) were seeded on a 6-well plate (7.5×10^4 cells/well). After 12 hours, the medium was removed therefrom and a medium containing 200 μM peptide D or 200 ng/ml BMP-2 was added thereto. The medium was removed at the respective time points shown in the relevant figures. PBS was added to the cells, and the cells were collected with a scraper (Falcon). A cell pellet was obtained via centrifugation at 1200 rpm for 5 min at 4° C. RIPA buffer (100 μL) was added to the collected pellet, for dissolution of the cellular membrane. Further, the resultant was centrifuged under conditions of 14500 rpm for 25 min at 4° C. The supernatant was collected as a cell extract. A portion of the cell extract was used for quantification of the protein concentration with the use of a BCA protein assay kit (PIERCE). For SDS-PAGE, a sample buffer in an amount that was ¼ that of the cell extract (Fermentas) was added thereto, followed by heating at 95° C. for 5 min. The prepared sample was applied in an amount of 7.5 or 10 μg to 10% polyacrylamide gel (BioRad), followed by electrophoresis at 170 V for 1 hour. After electrophoresis, the electrophoresed sample was transferred to a PVDF membrane (Millipore) at 80 mA for 40 min. […]

[2] = tested on: Smad1/5/8; assay: Western blotting of Smad1/5/8 phosphorylation in MC3T3-E1 cells; assay type: cell-based, mouse; settings: up to 3 hours after the addition; 200 μM peptide D or 200 ng/ml BMP-2
Protocol: as §1

[3] = tested on: mouse RANKL; assay: RT-PCR of RANKL expression in C2C12 cells; assay type: cell-based; settings: 100 ng/mL BMP-2; 36 hours
Protocol: C2C12 cells were seeded on a 96-well plate (5×10^3 cells/well). BMP-2 was added thereto in a manner such that the concentration thereof became 100 ng/mL after cell adhesion. After 36 hours, a TRIZOL solution (Invitrogen) (84 μL) was added to each well for cell lysis, thereby causing RNA extraction. A sample was prepared by collecting the resultants from 6 wells per group. Chloroform (Wako) (0.1 mL) was added to the sample, followed by vigorous end-over-end mixing and centrifugation under conditions of 4° C. at 12000×g for 15 minutes. The supernatant was collected in a new tube. Isopropanol (Nacalai) (0.25 mL) was added thereto, followed by end-over-end mixing. The resultant was left at room temperature for 10 min, followed by centrifugation under conditions of 4° C. at 12000×g for 10 minutes. The supernatant was removed therefrom. Then, 70% ethanol (1 mL) was added thereto, followed by centrifugation under conditions of 4° C. at 12000×g for 5 minutes. The further supernatant was removed therefrom. The RNA concentration thereof was determined, and 2 μg of the resultant was subjected to RT-PCR. RT-PCR was performed using ThermoScript RT-PCR System (Invitrogen) and random primers. After cDNA synthesis, PCR was performed using primers specific to mouse RANKL. For standardization, PCR was performed using primers specific to mouse GAPDH. The PCR primer sequences used are shown below. […]

[4] = tested on: RANKL knock-down MC3T3-E1 cells; assay: ALP activity in RANKL knock-down MC3T3-E1 cells; assay type: cell-based, mouse; settings: KD1 and KD2; 200 μM peptide D or 200 ng/ml BMP-2; 5 days
Protocol: In this regard, the RANKL expression levels in C2C12 cells were confirmed to increase upon the addition of BMP-2 (FIG. 35). Then, RANKL knockdown was performed in MC3T3-E1 cells with RNAi stealth in order to examine ALP activity enhancement actions of peptide D and the influence of RANKL knockdown. OPTiMEM (Invitrogen) (20 μL) and RNA-stealth select (tnfrsfl1) (Invitrogen) (1.2 pmol) were gently mixed in each well. After 5 minutes, Lipofectamine RNAiMAX (Invitrogen) (0.2 μL) was added thereto and each resultant was left at room temperature for 20 minutes. Further, MC3T3-E1 cells were seeded in each well (4×10^3 cells), followed by culture in a CO2 incubator for 48 hours. The culture solution was removed therefrom and αMEM containing 200 μM peptide D or 200 ng/ml BMP-2 was added thereto, followed by culture for further 5 days. Then, ALP activity determination was carried out by the method described in Example 1. In addition, for 3 types of RANKL (TNFRSF11) (KD) negative controls, similar experiments were carried out using Stealth RNAi negative universal control (Invitrogen). Cells were recovered in a necessary amount and mRNA was extracted therefrom by the method described in Example 7. Then, RANKL knockdown was confirmed using primers represented by SEQ ID NOS: 17 and 18 by RT-PCR.

B1: BMP-2: BMP-2 (R&D), known bone morphogenetic factor used as positive control (protein, UniProt P12643 283-396, looked up)
Bone morphogenetic protein 2: QAKHKQRKRLKSSCKRHPLYVDFSDVGWNDWIVAPPGYHAFYCHGECPFPLADHLNSTNHAIVQTLVNSVNSKIPKACCVPTELSAISMLYLDENEKVVLKNYQDMVVEGCGCR
- phosphorylation of GSK3β [1]: observed to a similar extent
- phosphorylation of Smad1/5/8 [2]: observed
- RANKL expression levels [3]: RANKL expression levels in C2C12 cells increase
- ALP activity enhancement under RANKL knockdown [4]: not influenced by RANKL knockdown
